# Test results as given in US12344614B2, “Benzodiazepine derivatives as GABA a GAMMA1 PAM” (Hoffmann-La Roche Inc., priority 2021, dated 2025).
# Biological target: human GABAA α1β3γ2 receptor (Homo sapiens (Human), UniProt P14867+P18507)
# Assay: Radioligand binding assay, competition for [3H]Flumazenil, HEK293F cells
# Settings: Ki α1β3γ2 (nM)/Ki α2β2γ1 (nM)
# Method: The affinity of compounds at GABAA γ2 subunit-containing receptors was measured by competition for [^3H]Flumazenil (81.1 Ci/mmol; Roche) binding to HEK293F cells expressing human (transiently transfected) receptors of composition α1β3γ2.
# Harvested pellets from HEK293F cells expressing the different GABAA γ2 receptor subtypes were resuspended in Mannitol Buffer pH 7.2-7.4 and processed as described above for the cells expressing the GABAA γ1 subunit-containing receptors.
# Assays were incubated to equilibrium for 1 hour at 4° C. and harvested onto GF/C uni-filters (Packard) by filtration using a Packard harvester and washing with ice-cold wash buffer (50 mM Tris; pH 7.5). After anhydrousing, filter-retained radioactivity was detected by liquid scintillation counting. Ki values were calculated using Excel-Fit (Microsoft) and are the means of two determinations.
smiles,measurement,value
"C[C@@H]1N=C(c2nc(O)ccc2F)c2c(ccc(C(F)(F)F)c2Cl)-n2nc(C(=O)N3CC(F)C3)nc21 [Example 21, [(4S)-7-chloro-6-(3-fluoro-6-hydroxy-2-pyridyl)-4-methyl-8-(trifluoromethyl)-4H-[1,2,4]triazolo[1,5-a][1,4]benzodiazepin-2-yl]-(3-fluoroazetidin-1-yl)methanone]",γ2/γ1 Selectivity Ratio,2538.6
